Among the data in ChEMBL document CHEMBL5727209, “Treatment of neurodegenerative diseases through inhibition of HSP90” (2019) are EC50 values, retold here.

Only a part of the results on these compounds is given; other tests are left out.

The nature of this test: Binding to JNPL3 brain Hsp90: The assay buffer (HFB) contained 20 mM HEPES (K) pH 7.3, 50 mM KCl, 5 mM MgCl2, 20 mM Na2MoO4, 0.01% NP40. Before each use, 0.1 mg/mL bovine gamma globulin (BGG) (Panvera Corporation, Madison, Wis.) and 2 mM DTT (Fisher Biotech, Fair Lawn, N.J.) were freshly added. GM-cy3B, a specific Hsp90 ligand, was synthesized as previously reported (10) and was dissolved in DMSO.

`CN(CC#N)CCn1c(Cc2cc3c(cc2I)OCO3)nc2c(N)nc(F)nc21` came in with an EC50 of 107 nM.
In the case of `CC(C)CNCCn1c(Cc2cc3c(cc2I)OCO3)nc2c(N)nc(F)nc21` it was 19.6 nM; in that of `CCN(C)CCn1c(Cc2cc3c(cc2I)OCO3)nc2c(N)nc(F)nc21`, 166 nM.
In the case of `CC(C)N(C)CCn1c(Cc2cc3c(cc2I)OCO3)nc2c(N)nc(F)nc21` it was 92.3 nM; in that of `CC(C)(C)CNCCn1c(Cc2cc3c(cc2I)OCO3)nc2c(N)nc(F)nc21`, 23.5 nM.
In the case of `CC(C)NCCn1c(Cc2cc3c(cc2I)OCO3)nc2c(N)nc(F)nc21` it was 219 nM.
Molecule `Nc1nc(F)nc2c1nc(Cc1cc3c(cc1I)OCO3)n2CCNCC1CC1` registered an EC50 of 35.6 nM.
